{"sequences": {"note": "By UniProt entry, the sequences of proteins in these tests, tags left out.", "UniProt Q01196, whole entry, looked up": "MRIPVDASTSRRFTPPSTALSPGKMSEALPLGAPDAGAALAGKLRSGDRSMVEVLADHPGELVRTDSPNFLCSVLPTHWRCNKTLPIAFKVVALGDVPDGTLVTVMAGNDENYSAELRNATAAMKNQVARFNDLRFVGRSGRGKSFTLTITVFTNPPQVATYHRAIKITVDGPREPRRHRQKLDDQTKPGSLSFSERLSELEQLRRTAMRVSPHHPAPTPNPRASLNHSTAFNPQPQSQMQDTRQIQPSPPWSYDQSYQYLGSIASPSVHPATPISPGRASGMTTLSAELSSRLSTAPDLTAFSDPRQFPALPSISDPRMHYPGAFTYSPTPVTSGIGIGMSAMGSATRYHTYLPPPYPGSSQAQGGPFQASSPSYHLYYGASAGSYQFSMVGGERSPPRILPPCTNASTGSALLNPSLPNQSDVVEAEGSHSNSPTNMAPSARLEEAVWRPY", "UniProt Q13951, whole entry, looked up": "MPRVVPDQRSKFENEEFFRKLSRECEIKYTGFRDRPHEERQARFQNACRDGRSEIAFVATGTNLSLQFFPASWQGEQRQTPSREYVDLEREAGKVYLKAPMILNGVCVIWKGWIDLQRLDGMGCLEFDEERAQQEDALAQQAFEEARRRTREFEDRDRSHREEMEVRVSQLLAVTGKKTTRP"}, "source": "PubChem BioAssay AID1496", "about": "(Sanford-Burnham Center for Chemical Genomics, 2009)", "note": "The list shows a part of the results, in another mix than the full data. Some results for these compounds are left out of this collection, so the calls shown say nothing about other tests. Active and inactive are the calls of the source.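 Rule for the calls: active = inhibition over about 50% at 20 µM in the single-dose screen (limit read from the data); inactive = the rest.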"}
{"molecular_target": "Runt-related transcription factor 1 (Homo sapiens) + Core-binding factor subunit beta (Homo sapiens) (UniProt Q01196+Q13951)", "test": "inhibitors of RUNX1 Runt–CBFb binding, primary screen, biochemical, FRET, Cerulean-Runt, Venus-CBFb, uHTS (AID 1496);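 note: 0% = DMSO wells and 100% = excess unlabeled CBFb competitor control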", "details": "Cerulean-Runt/Venus-CBFb FRET ratio 530/480, 1 h; at 20 µM; hits give high values", "summary_of_the_method": "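System: Cerulean-labeled Runt domain protein | Quantity: 100 nM of each labeled protein | Schedule: 1 h compound exposure, room temperature | Detection: Fluorescence energy transfer, 422 nm excitation, 530/480 nm emission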"}
{"compound": "COc1cccc(C(=O)NCC2(N3CCCCC3)CCCCC2)c1", "inhibition": "inactive: 0.1%"}
{"compound": "COc1ccc(Br)c(C(=O)NCC2(N3CCCCC3)CCCCC2)c1", "inhibition": "inactive: 6.1%"}
{"compound": "CN(C)c1cccc(C(=O)NCC2(N(C)C)CCCCC2)c1", "inhibition": "inactive: -1.1%"}
{"compound": "O=C(OC1CN2CCC1CC2)C(CO)(c1ccccc1)c1ccccc1", "note": "(stereo unspecified)", "inhibition": "inactive: -0.5%"}
{"compound": "CC(C)N1C(=O)CC2(CCN(CCOC(=O)C(O)(c3ccccc3)c3ccccc3)CC2)C1=O", "inhibition": "inactive: -2.6%"}
{"compound": "CCN(CC)CC(C)C(C)OC(=O)C(O)(c1ccccc1)c1ccccc1", "note": "(stereo unspecified)", "inhibition": "inactive: -0.2%"}
{"compound": "O=C(NCC1(N2CCCCC2)CCCCC1)c1cc([N+](=O)[O-])ccc1Cl", "inhibition": "inactive: -0.9%"}
{"compound": "C=CCN1CCN(CCOC(=O)C(O)(c2ccccc2)c2ccccc2)CC1", "inhibition": "inactive: -0.1%"}
{"compound": "CCN1CCCC(OC(=O)C2(O)c3ccccc3C=Cc3ccccc32)C1", "note": "(stereo unspecified)", "inhibition": "inactive: -2%"}
{"compound": "CN(C)C1CCCC1OC(=O)C(O)(c1ccccc1)c1ccccc1", "note": "(stereo unspecified)", "inhibition": "inactive: -0.4%"}
{"compound": "Cc1ccccc1C(=O)NCC1(N2CCCCC2)CCCCC1", "inhibition": "inactive: 2.1%"}
